Measured values reported in patent US8580321B2, “Method for reducing the effects of chemotherapy using flagellin related polypeptides” (priority 2003, dated 2013).

Tested on: NF-κB
Test: EMSA of NF-κB translocation / DNA binding in A549 cells
Details: 1 μg/ml, 45 min, EMSA of whole cell extracts

B1: GST-B′: GST-Linker-(402-450), SEQ ID NO: 28 (protein)
chain: MSPILGYWKIKGLVQPTRLLLEYLEEKYEEHLYERDEGDKWRNKKFELGLEFPNLPYYIDGDVKLTQSMAIIRYIADKHNMLGGCPKERAEISMLEGAVLDIRYGVSRIAYSKDFETLKVDFLSKLPEMLKMFEDRLCHKTYLNGDHVTHPDFMLYDALDVVLYMDPMCLDAFPKLVCFKKRIEAIPQIDKYLKSSKYIAWPLQGWQATFGGGDHPPKSDLVPRGSPGISGGGGGILDSMGTLINEDAAAAKKSTANPLASIDSALSKVDAVRSSLGAIQNRFDSAITNL
modifications: Salmonella dublin
NF-κB Stimulation: No
